Assay: Selectivity ratio of Ki for sigma-2 receptor in rat liver homogenates to Ki for sigma-1 receptor in guinea pig brain homogenates
Format: tissue-based

COc1ccc(CN2CCN(Cc3ccccc3)CC2)cc1
Ratio Ki: 342

From ChEMBL document CHEMBL3102830, “Involvement of apoptosis and autophagy in the death of RPMI 8226 multiple myeloma cells by two enantiomeric sigma receptor ligands” (Bioorg Med Chem, 2014)
